Reference: patent publication US5773522A, “Polymer-bound camptothecin derivatives” (priority 1993, dated 1998)

System: healthy C57Bl/F mice
Test: Toxicity (LD10, LD50) in healthy mice
Format: in vivo
Description: Toxicity of copolymer of N-(2-hydroxypropyl)methacryl-amide, 20-O-[N-methacryloylglycyl-L-phenylalanyl-L-leucylglycyl ] camptothecin and N-(2-hydroxypropyl) methacryloylglycinamide (A2) was evaluated in healthy C57Bl/F mice, treatment i.v. in comparison with camptothecin (CPT).

Substance: Copolymer of N-(2-hydroxypropyl)methacrylamide, 20-O-[N-methacryloylglycyl -L-phenylalanyl-L-leucylglycyl] camptothecin and N-(2-hydroxypropyl) methacryloylglycinamide [Compound A2]
- toxicity (in words) (compared with camptothecin): low toxicity
- LD10 (dose inducing 10% of death mice) (i.v., healthy C57B1/F mice): 129 mg/kg
- LD50 (dose inducing 50% of death mice) (i.v., healthy C57B1/F mice): 151 mg/kg
